In US9456972B2, “Niacin-peptide having skin whitening activity and use for same” (priority 2011, dated 2016):

Assays:
Format in all cases: cell-based, mouse
B16F10 melanocytes = assay: Screening of niacin-peptides: inhibition of melanogenesis against α-MSH; parameters: key to Screening value: Inhibition of melanogenesis against α-MSH: relative to absorbance (490 nm) of α-MSH-only positive control; settings: for Screening value: Inhibition of melanogenesis against α-MSH: 20 μg/ml α-MSH plus 10 ng/ml peptide, 3 days, UV 490 nm, α-MSH-only positive control as standard; for inhibition rate of melanogenesis: α-MSH-induced melanocytes, compared with the control group (Table 1)
Method: The present inventors screened skin whitening peptides by measuring decrease in melanogenesis using the niacin-peptide libraries prepared in Example 1. B16F10 melanocytes (the Korean Cell Line Bank) were incubated with α-MSH to induce melanogenesis and the inhibition of melanogenesis by the peptide libraries was analyzed. The mouse melanocytes were cultured at 37° C. in 5% CO2 atmosphere in DMEM supplemented with 10% FBS. The cells were seeded in each well of a 96-well plate (5×10^4 cells/well) and their attachment was verified. Afterwards, the control group was incubated with only solvent, the positive control group was incubated with 20 μg/ml of α-MSH and the other wells was incubated with 20 μg/ml of α-MSH and 10 ng/ml of peptides for 3 days.
The inhibition rates of melanogenesis by treatment of each peptide prepared in Example 1 were measured at UV 490 nm. The inhibition rates were calculated using the absorbance value of the positive control group incubated with only α-MSH as a standard, which are summarized in Table 1. The candidate peptides analyzed to show excellent screening results were selected and synthesized in a 100-μmole scale for further experiments. FIG. 1 represents the screening result of niacin-peptides.

[1] = test system: TRP1 (tyrosinase-related protein-1); assay: RT-PCR of melanogenesis gene expression in α-MSH-treated B16F10 cells; settings: 20 μg/ml α-MSH plus 1, 10 and 50 μg/ml, 4 days
Method: (§1) To more clearly check activities of niacin-peptides on skin whitening in α-MSH-treated B16F10 melanoma cells, mRNA level of TRP1 (tyrosinase-related protein-1), TRP2 and microphtnalmia-associated transcription factor (MITF) was measured using RT-PCR.
(§2) First, B16F10 cells were plated at a 6-well plate in a density of 1×10^5 cells/well and cultured for 3 days. After cell adhesion was observed, medium was changed with a fresh medium containing 2% serum. Cells were incubated with each test group for 4 days: (a) only solvent as negative control; (b) 20 μg/ml α-MSH as a positive control; (c) 20 μg/ml α-MSH plus 1, 10 and 50 μg/ml peptides (PG, PS, ET and VS); and (d) 20 μg/ml α-MSH plus 1, 10 and 50 μg/ml niacin-peptides (Nicotinoyl-PG, Nicotinoyl-PS, Nicotinoyl-ET and Nicotinoyl-VS). Subsequently, mRNA were extracted from cells and RT-PCR was carried out using primers for TRP1, TRP2 and MITF. The primer sequence is as follows: TRP1 F-primer, 5′-TGGCCCAGGATCAGTAGGT-3′ (SEQ ID NO: 54) and TRP1 R-primer, 5′-CATCAACACTTCCAGCA-3′ (SEQ ID NO: 55); TRP2 F-primer, 5′-GGCTACAATTACGCCGTTG-3′ (SEQ ID NO: 56) and TRP2 R-primer, 5′-[…]-3′ (SEQ ID NO: 57); and MITF F-primer, 5′-[…]-3′ (SEQ ID NO: 58) and MITF R-primer, 5′-[…]-3′ (SEQ ID NO: 59), GAPDH F-primer, 5′-GAGCCAAACGGGTCATCA-3′ (SEQ ID NO: 60) and GAPDH R-primer, 5′-CATATTCGTGGTTCACACC-3′ (SEQ ID NO: 61).

TRP2 = assay: as above; settings: 20 μg/ml α-MSH plus 1, 10 and 50 μg/ml, 4 days
Method: as §1, §2

[2] = test system: microphtnalmia-associated transcription factor (MITF); assay: as above; settings: 20 μg/ml α-MSH plus 1, 10 and 50 μg/ml, 4 days
Method: as §1, §2

| Substance | Screening value: Inhibition of melanogenesis against α-MSH (B16F10 melanocytes) | inhibition rate of melanogenesis (B16F10 melanocytes) [%] | expression of TRP-1 gene (mRNA, RT-PCR) [1] | expression of TRP-2 gene (mRNA, RT-PCR) (TRP2) | expression of MITF gene (mRNA, RT-PCR) [2] |
| --- | --- | --- | --- | --- | --- |
| nicotinoyl-EQ (N-terminal nicotinoyl; niacin-linked peptide) | 0.9 |  |  |  |  |
| nicotinoyl-ET (N-terminal nicotinoyl; niacin-linked peptide) | 0.60 | 40 | inhibit the expression | inhibit the expression | inhibit the expression |
| nicotinoyl-FP (N-terminal nicotinoyl; niacin-linked peptide) | 0.8 |  |  |  |  |
| nicotinoyl-IF (N-terminal nicotinoyl; niacin-linked peptide) | 1 |  |  |  |  |
| nicotinoyl-NI (N-terminal nicotinoyl; niacin-linked peptide) | 0.8 |  |  |  |  |
| nicotinoyl-NL (N-terminal nicotinoyl; niacin linked to peptide′s N-terminal) | 0.8 |  |  |  |  |
| nicotinoyl-NY (N-terminal nicotinoyl; niacin-linked peptide) | 0.8 |  |  |  |  |
| nicotinoyl-PG (N-terminal nicotinoyl; niacin-linked peptide) | 0.70 | 30 | inhibit the expression | inhibit the expression | inhibit the expression |
| nicotinoyl-QI (N-terminal nicotinoyl; niacin-linked peptide) | 0.82 |  |  |  |  |
| nicotinoyl-VA (N-terminal nicotinoyl; niacin-linked peptide) | 0.83 |  |  |  |  |
| nicotinoyl-VF (N-terminal nicotinoyl; niacin-linked peptide) | 0.81 |  |  |  |  |
| nicotinoyl-VS (N-terminal nicotinoyl; niacin-linked peptide) | 0.65 | 35 | inhibit the expression | inhibit the expression | inhibit the expression |
| nicotinoyl-VT (N-terminal nicotinoyl; niacin-linked peptide) | 0.78 |  |  |  |  |
| nicotinoyl-WM (N-terminal nicotinoyl; niacin-linked peptide) | 0.81 |  |  |  |  |
| nicotinoyl-YR (N-terminal nicotinoyl; niacin-linked peptide) | 0.79 |  |  |  |  |
